Reference: patent publication US9187397B2 (STC.UNM, priority 2004, dated 2015)
Read-outs that look alike come from different tables or passages of the source.

Test system: NF-κB
Experiment: NF-κB luciferase reporter cellular assay (293T/NF-κB-luc, TNFα-stimulated)
Type: cell-based
Conditions: Homo sapiens, HEK-293T, inhibition of TNFα-induced NF-κB activation
Protocol: The cell line is derived from human 293T embryonic kidney cells expressing the large T antigen containing a chromosomal integration of a luciferase reporter construct regulated by 6 copies of the NF-κB response element (Panomics, Inc.). This stable clonal cell line is obtained by co-transfection of pNF-κB-luc and pTK-hyg containing plasmids followed by the addition of hygromycin (200 μg/ml) to maintain cell selection.
The cell line was grown in a humidified atmosphere at 37° C. in 5% CO2/95% air and maintained in Dulbecco's Modified Eagle's Medium (DMEM-high glucose containing 4 mM glutamine) containing fetal bovine serum (FBS, 10%), sodium pyruvate (1 mM), penicillin (100 units/ml), streptomycin (100 μg/ml) and hygromycin (100 μg/m) to maintain cell selection (Gibco/Invitrogen).
The 293T/NF-κB-luc cells were re-plated 24 hr prior to treatment, into 24-well cell culture plates in media without hygromycin, to prevent it from interfering with the assay. The cells were then allowed to grow and attach, to the wells, for 24 hr in a humidified atmosphere at 37° C. in 5% CO2/95% air. […] The cells then were placed again in a humidified atmosphere at 37° C. in 5% CO2/95% air for 7 hr. Plate wells were gently washed with PBS, pH 7.4, and lysed with passive lysis buffer (1×, 100 μl, Promega). The subsequent chemiluminescent lysates were analyzed with the Luciferase Assay System (Promega) utilizing a TD-20/20 luminometer. The relative light units (photons) were determined by the addition of firefly luciferase substrate (75 μl) to cell lysate (10 μl). The light units were then normalized to the amount of protein in the well (mg/ml) with BCA™ Protein Assay Kit (Pierce) and standardized to percent of control (TNFα).
This assay utilized a commercially available cell line (Panomics 293T-luc cellular assay) developed for screening inhibitors of NF-κB. This cell line is stably transfected with a luciferase reporter controlled by an NF-κB dependent promoter. The cell is stimulated with tumor necrosis factor alpha (TNFα) which activates NF-κB. NF-κB then binds to one of six promoter regions on the cell's DNA leading to the production of a luciferase enzyme. Luciferin is added to the cell lysates and the luciferase enzyme catalyzes a cleavage of luciferin leading to the emission of light.
This cell line was developed by Panomics for screening potential inhibitors of NF-κB. Cells are stimulated with TNF-α to express luciferase, whose activity is monitored in a chemiluminometer.
An NF-κB reporter stable cell line from human 293T embryonic kidney cells (293T/NFκB-luc) (Panomics) was grown in a humidified atmosphere at 37° C. in 5% CO2/95% air. The cells were maintained in Dulbecco's Modified Eagle's Medium (DMEM—high glucose containing 4 mM glutamine) supplemented with 10% fetal bovine serum (FBS), 1 mM sodium pyruvate, 100 units/ml penicillin, 100 μg/m streptomycin and 100 μg/ml hygromycin (Gibco/Invitrogen, Carlsbad, Calif.)) to maintain cell selection. One day prior to treatment, the 293T/NFκB-luc cells were plated into 24-well cell culture plates (Costar) at approximately 70% confluency in the above media without hygromycin. The following day cells were fed fresh media 1 hour prior to treatment. […] The cells were placed again in a humidified atmosphere at 37° C. in 5% CO2/95% air for 7 hours. […] The subsequent lysates were analyzed with the Luciferase Assay System (Promega) utilizing a TD-20/20 luminometer (Turner Designs). […]

[1] = 293T/NF-κB-luc cells, Table 5, read-out: IC50

IC50 [1] [µM]	IC50 (Table 10, read-out: NF-κB IC50) [µM]	Structure (SMILES)
4.2	4.2	O=C(/C=C/c1ccccc1O)/C=C/c1ccccc1O [20q]
3.5	3.5	O=C(/C=C/c1ccncc1)/C=C/c1ccncc1 [compound 29]

Structure (SMILES)	IC50 [1] [µM]	IC50 (Table 10, read-out: NF-κB IC50) [µM]
COc1cc(/C=C/C(=O)/C=C(O)/C=C/c2ccc(O)c(OC)c2)ccc1O [analog 3a, 1,7-Bis(4-hydroxy-3-methoxyphenyl)-1,6-heptadiene-3,5-dione]	8.2	–
